Here are results for 7 molecules from ChEMBL document CHEMBL1144351, “Synthesis, structure-activity relationship, and receptor pharmacology of a new series of quinoline derivatives acting as selective, noncompetitive mGlu1 antagonists” (J Med Chem, 2005).

The chains behind the UniProt entries cited, without tags or fusion partners. Where a name states a change or a piece, a line headed by the entry shows the natural chain unless it says otherwise.
UniProt P23385: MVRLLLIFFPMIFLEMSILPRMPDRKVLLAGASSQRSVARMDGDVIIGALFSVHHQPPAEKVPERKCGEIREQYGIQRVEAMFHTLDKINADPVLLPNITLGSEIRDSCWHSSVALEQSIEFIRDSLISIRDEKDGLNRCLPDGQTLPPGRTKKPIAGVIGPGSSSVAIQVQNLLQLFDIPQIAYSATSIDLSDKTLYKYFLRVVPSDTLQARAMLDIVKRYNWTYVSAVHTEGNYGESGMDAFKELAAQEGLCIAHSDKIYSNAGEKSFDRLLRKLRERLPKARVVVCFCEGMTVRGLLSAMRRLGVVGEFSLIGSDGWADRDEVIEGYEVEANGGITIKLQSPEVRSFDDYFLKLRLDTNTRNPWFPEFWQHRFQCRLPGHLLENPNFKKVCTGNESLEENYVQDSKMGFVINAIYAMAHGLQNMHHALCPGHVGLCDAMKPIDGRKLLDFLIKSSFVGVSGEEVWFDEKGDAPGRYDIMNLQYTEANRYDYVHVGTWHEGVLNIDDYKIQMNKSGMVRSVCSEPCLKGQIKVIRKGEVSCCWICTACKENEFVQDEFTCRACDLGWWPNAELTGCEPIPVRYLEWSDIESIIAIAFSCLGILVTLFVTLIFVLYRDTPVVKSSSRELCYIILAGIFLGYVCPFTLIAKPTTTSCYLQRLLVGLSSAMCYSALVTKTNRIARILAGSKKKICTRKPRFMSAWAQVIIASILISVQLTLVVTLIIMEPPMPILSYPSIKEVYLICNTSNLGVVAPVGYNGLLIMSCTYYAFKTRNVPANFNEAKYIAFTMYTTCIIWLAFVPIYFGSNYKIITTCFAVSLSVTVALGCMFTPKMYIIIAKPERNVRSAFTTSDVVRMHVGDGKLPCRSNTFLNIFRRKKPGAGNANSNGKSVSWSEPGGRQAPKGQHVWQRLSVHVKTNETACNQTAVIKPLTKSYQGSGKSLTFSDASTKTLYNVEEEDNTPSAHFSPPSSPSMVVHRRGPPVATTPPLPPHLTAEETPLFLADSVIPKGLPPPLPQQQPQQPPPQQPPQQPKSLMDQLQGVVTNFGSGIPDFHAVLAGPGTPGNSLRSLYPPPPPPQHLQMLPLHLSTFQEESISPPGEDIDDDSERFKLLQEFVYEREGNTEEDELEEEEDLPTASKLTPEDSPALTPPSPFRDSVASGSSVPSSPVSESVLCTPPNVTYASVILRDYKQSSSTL

pIC50: −log10 of the molar value.

The target of this test is Metabotropic glutamate receptor 1 (Rattus norvegicus, UniProt P23385). The experiment in a line: Inhibitory concentration against rat metabotropic glutamate receptor 1. Put shortly:
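Rat mGlu1a stably expressed in CHO-dhfr- cells grown in DMEM/GlutaMAX1 with 10% heat-inactivated dialyzed fetal calf serum, 0.4 mM L-proline and antibiotics. Inhibition of receptor activation was measured as intracellular Ca2+ rise on a fluorometric imaging plate reader. IC50 is the mean of two or three independent experiments.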
`CO[C@H]1CC[C@@H](C(=O)c2ccc3nc4c(cc3c2)CCCN4C)CC1` had a pIC50 of 8.10. To `CCCc1ccc2cc(C(=O)[C@H]3CC[C@@H](OC)CC3)ccc2n1` belongs 8.30; to `CCc1cc2cc(C(=O)C3CCC(O)CC3)ccc2nc1C` (configuration not stated), 7.30; to `CO[C@H]1CC[C@@H](C(=O)c2ccc3nc4c(cc3c2)CCC4)CC1`, 8.40. To `CCc1cc2cc(C(=O)[C@H]3CC[C@@H](OC)CC3)ccc2nc1F` belongs 8.40; to `CCc1cc2cc(C(=O)C3CCC(OC)CC3)ccc2nc1CC` (stereo in doubt; cis), 8.52; to `CCc1cc2cc(C(=O)C3CCC(OC)CC3)ccc2nc1CC` (stereo in doubt; trans), 7.19.
